Assays:
[1] = test system: 5-HT; test: 5-HT levels in normal animals by microdialysis and HPLC-ECD; format: in vivo, rat; settings: 10 mg/kg i.p.
[2] = test system: 5-HT; test: 5-HT levels in hippocampus of CMS rats by microdialysis and HPLC-ECD; format: in vivo, rat

In the case of `CNCCC(Oc1ccc(C(F)(F)F)cc1)c1ccccc1` (stereo not drawn) [fluoxetine], the 5-HT levels [1] was “significantly increased”, the “5-HT levels in the hippocampus” value ([2]; CMS rats, 10 mg/kg i.p., versus control group, P<0.05) was “significant increase” and the “levels of the 5-HT neurotransmitter” value ([2]; chronic CMS model, dose not stated) was “significantly increase”.

Source: patent US20070207230A1, “EXTRACT OF NELUMBINIS SEMEN FOR THE TREATMENT OF DEPRESSION, MEDICINAL COMPOSITE AND HEALTH FOODS INCLUDING THE EXTRACT OF NELUMBINIS SEMEN” (PURIMED CO., LTD., priority 2004, published 2007)
